We go through one compound from ChEMBL document CHEMBL1130720, “Design, synthesis, and conformational analysis of a novel series of HIV protease inhibitors” (Bioorg Med Chem Lett, 1998).

Molecules are shown by their SMILES.

In this experiment the target is Human immunodeficiency virus type 1 protease (Human immunodeficiency virus 1, UniProt Q72874). Put plainly: Binding affinity to HIV-1 protease was determined.

The compound `CC(C)CN(C[C@@H](O)[C@H](Cc1ccccc1)NC(=O)O[C@H]1CCOC1)S(=O)(=O)c1ccc(N)cc1` [AMPRENAVIR] displayed an inhibition constant Ki of less than 100 pM.
